# Bioassay records as filed in PubChem BioAssay.
# The list is not random: actives were taken first. Their share in the collection is about 0.34%.
# TRPML1 agonist = agonists of human TRPML1 channel; Q9GZU1; TRPML1-expressing cells, Ca2+ dye fluorescence, FDSS; activation, % (no concentration beside the values); 0.12% of 410,000 active; AID 624414; in the data active means activation above about 50%; inconclusive means mostly about 30% to 49%; further: 0% is about no effect
#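 In this qHTS format, compounds were pin-transferred onto Ca8-dye-loaded TRPML1-DL cells induced with Tet overnight, and intracellular Ca2+ fluorescence was recorded kinetically for 110 s after a 10 s baseline. A subsequent 4uM final 54-4 (EC80) addition followed by a second 110 s read served as the antagonist phase.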
# miR-21 reporter = miR-21 reporter, rising signal. HeLa miR-21 FLuc reporter, luciferase, 48 h. Potency, µM (highest dose often 38.3 µM), for the others: at the highest dose reporter change, positive = more light. 340,000 tested, under 10 active. AID 2288; active = well fitted rising curve with a large enough effect; inconclusive = small, poorly fitted or top-dose-only effect; inactive = no such curve, though single readings can be large or run the other way;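 further: % of control where 0% means no effect; miR-21 action dims this reporter so a rising signal means less miR-21 action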
#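 Luminescence from a firefly luciferase reporter carrying a miR-21 binding site downstream, stably expressed under a CMV promoter in HeLa cells that make miR-21 endogenously, reports miRNA modulation after 48 h compound exposure up to approximately 40uM final.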
# TRPML1 inh = inhibitors of human TRPML1 channel | Q9GZU1 | TRPML1-inducible cells, Ca2+ dye fluorescence, FDSS; stronger effect = lower value; inhibition of EC80 agonist-evoked calcium signal | activity change, negative = inhibition, % (test concentration not listed) | 0.02% of 390,000 active | AID 624415; in the data active means activity change below about -50%; inconclusive means between about -30% and that limit;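 further: stimulus is agonist 54-4 at its EC80 concentration; on the % scale 0 is the no-effect control and ±100 the full control effect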
#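 Calcium fluorescence in TRPML1-DL cells induced overnight with Tet: a 110 s read after compound pin addition, then a 110 s antagonist read after challenge with 54-4 at 4 uM final (EC80).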
# uPA generation = cell surface uPA generation inhibition | cell surface uPA generation assay, qHTS | Potency, µM (doses to about 38.3 µM), for the others: top-dose activity change, negative = inhibition, hits mostly inhibitors | 0.31% of 330,000 active | AID 540303; active means well fitted inhibition curve with a large enough effect; inconclusive means small, poorly fitted or top-dose-only effect; inactive means no such curve, though single readings can be large or run the other way; tested in mouse RAW 264.7 cells; further: potency means the concentration at half of the fitted maximal effect; on the % scale 0 is the no-effect control and ±100 the full control effect; nearly all actives have a fitted effect of over 55% in size
# An asterisk follows results filed as active; ? = inconclusive; . = no result given; ! = a repeat was not active.
# Letters: A = TRPML1 agonist; B = miR-21 reporter; C = TRPML1 inh; D = uPA generation
molecule: COc1cccc(N2[C@@H](CC(C)=O)c3ccc(/C=C/C(C)=O)cc3S2(=O)=O)c1
  A: 0 | B: . | C: 16 | D: 3.2µM*
molecule: COc1ccc(CN2[C@@H](CC(C)=O)c3ccc(/C=C/C(C)=O)cc3S2(=O)=O)cc1
  A: -1 | B: . | C: -6 | D: ?
molecule: COc1ccc(COc2cc(-c3cccc(OC)c3)nc3ccc(N)cc23)cc1
  A: 0 | B: -5% | C: -15 | D: 1.1µM*
molecule: COc1cc2nc(NC3CCN(Cc4ccccc4)CC3)nc(N3CCCN(C)CC3)c2cc1OC
  A: 0 | B: . | C: . | D: .
molecule: CCCCN(C(=O)c1ccc(S(=O)(=O)N(C)C)cc1)c1nc2ccccc2s1
  A: 3 | B: -12% | C: -9 | D: 8%
molecule: CCCCN(C(=O)c1ccc(S(=O)(=O)N(C)C)cc1)c1ccccc1
  A: 81* | B: 6% | C: -12 | D: 5%
molecule: COc1ccc(F)c(Cn2cnc3c(cnn3C(C)(C)C)c2=O)c1Cl
  A: 2 | B: . | C: -28 | D: .
molecule: Cc1cc(C(=O)COC(=O)c2ccc[nH]c2=O)c(C)n1-c1ccccc1F
  A: -1 | B: 26% | C: 1 | D: 2.8µM*
molecule: CS(=O)(=O)c1ccc(/C=C2\C=Cc3ccccc32)cc1
  A: 1 | B: . | C: . | D: .
molecule: COc1cccc(OC)c1-c1cc(CCCc2cc(-c3c(OC)cccc3OC)nc3ccccc23)c2ccccc2n1
  A: 2 | B: . | C: . | D: .
molecule: CC(C)c1cc(=O)oc2c3c4c(cc12)CCCN4CCC3
  A: 10 | B: -9% | C: -12 | D: -8%
molecule: O=c1oc2c3c4c(cc2c(C(F)(F)F)c1CCN1CCOCC1)CCCN4CCC3
  A: 91* | B: -8% | C: -26 | D: 2%
molecule: CCC(c1nnnn1Cc1cccs1)N1CCN(c2nc3ccccc3s2)CC1 (centres undefined)
  A: 13 | B: 22% | C: 3 | D: -8%
molecule: CC(C)CC(c1nnnn1Cc1cccs1)N1CCN(c2nc3ccccc3s2)CC1 (centres undefined)
  A: 74* | B: -15% | C: -11 | D: 1%
molecule: COc1ccc(/C(C)=N/NC(=O)c2cc(-c3cccnc3)nc3ccccc23)cc1
  A: 0 | B: -9% | C: 1 | D: -3%

# Later entries.
# Letters: A = TRPML1 agonist; B = miR-21 reporter; C = TRPML1 inh; D = uPA generation
molecule: COc1ccc(-c2cc(C(=O)N/N=C(\C)c3cccnc3)c3ccccc3n2)cc1
  A: 1 | B: -20% | C: 16 | D: 8.9µM*
molecule: Cc1sc2ccccc2[n+]1CCCC[n+]1c(C)sc2ccccc21
  A: 0 | B: . | C: . | D: .
molecule: N#Cc1cccc(NC(=O)CSc2ccc3c4c(cccc24)C(=O)c2ccccc2-3)c1
  A: 80* | B: -14% | C: -15 | D: 0%
molecule: C=CCN=c1scc(-c2ccccc2)n1/N=C/c1ccccn1
  A: 2 | B: 13% | C: 40 | D: 0.4µM*!
molecule: O=Cc1cc(N=Nc2ccccc2Cl)ccc1O
  A: 3 | B: -7% | C: 1 | D: 8.9µM*
molecule: O=Cc1cc(N=Nc2cccc(C(=O)O)c2)ccc1O
  A: -1 | B: -25% | C: 53 | D: -1%
molecule: Cc1cnnc2ccccc12
  A: 0 | B: . | C: . | D: .
molecule: O=C(c1ccc(Cl)cc1)C(CN1CCCC1)c1ccccc1 (centres undefined)
  A: 0 | B: ? | C: -27 | D: 5µM*
molecule: COc1ccc(C(=O)C(CN2CCCC2)c2ccccc2)cc1 (centres undefined)
  A: 0 | B: ? | C: 2 | D: -10%
molecule: COc1cc2nc(CN(C)Cc3ccc(C(C)(C)C)cc3)[nH]c(=O)c2cc1OC
  A: 2 | B: -2% | C: 1 | D: 3.5µM*
molecule: COc1ccccc1C(c1nnnn1CCc1ccccc1)N1CCN(c2ccccc2)CC1 (centres undefined)
  A: 3 | B: -2% | C: 6 | D: 7%
molecule: COc1cccc(C(c2nnnn2CCc2ccccc2)N2CCN(c3ccccc3)CC2)c1OC (centres undefined)
  A: 88* | B: 10% | C: -9 | D: 8%
molecule: COc1ccc(N2CCN(C(c3ccccc3OC)c3nnnn3C3CCCC3)CC2)cc1 (centres undefined)
  A: 79* | B: 3% | C: ? | D: -2%
molecule: CN(C)c1ccc(Cn2ccc3ccccc32)cc1
  A: 0 | B: . | C: . | D: .
molecule: Cc1cc(C)c2nccc(/C=C/c3ccc(N(C)C)cc3)c2c1
  A: 15 | B: . | C: . | D: .

# Next part.
# Letters: A = TRPML1 agonist; B = miR-21 reporter; C = TRPML1 inh; D = uPA generation
molecule: COc1ccc(C2CN=NC23CCc2ccccc2C3=O)cc1 (centres undefined)
  A: -1 | B: 10% | C: 2 | D: 4.5µM*
molecule: COc1ccc(N=Cc2cc(Cc3ccccc3Cl)cc([N+](=O)[O-])c2O)cc1OC
  A: 1 | B: -3% | C: 3 | D: 5%
molecule: Cc1ccc(N=Cc2cc(Cc3ccccc3Cl)cc([N+](=O)[O-])c2O)c(O)c1
  A: 2 | B: -4% | C: -15 | D: 8.9µM*
molecule: O=C(N/N=C/c1cccc2cccnc12)c1ccccc1O
  A: 0 | B: ? | C: 4 | D: 5µM*
molecule: C(=N\Nc1nc2ccccc2[nH]1)/c1ccccc1
  A: -1 | B: -54% | C: -8 | D: -7%
molecule: Brc1ccc(-c2ccc(/C=N/Nc3nc4ccccc4[nH]3)o2)cc1
  A: 1 | B: -24% | C: 33 | D: 10µM*
molecule: Cc1sc2ccccc2[n+]1CCCCBr
  A: 0 | B: . | C: . | D: .
molecule: C=CCn1c2ccccc2c(=O)c2cc(C#CC[C@@H](C)O)ccc21
  A: 1 | B: . | C: 1 | D: 4µM*
molecule: Cc1ccccc1CN1Cc2cccc3c2[C@H](C=CC3)CC1=O
  A: 0 | B: . | C: . | D: .
molecule: O=c1[nH]c2cc3c(cc2cc1CN(Cc1ccco1)C(=S)NCC1CCCO1)OCCO3 (centres undefined)
  A: 2 | B: -2% | C: 14 | D: 13µM*
molecule: CSC1=NSC2=NC(=O)/C(=C\c3ccc(OC(=O)c4ccco4)cc3)C(=N)N12
  A: 0 | B: -22% | C: -3 | D: -23%
molecule: CCSC1=NSC2=NC(=O)/C(=C\c3coc4ccccc4c3=O)C(=N)N12
  A: 77* | B: -18% | C: -1 | D: 2%
molecule: Cc1cccc(-n2c(C)cc(/C=C3\C(=N)N4N=C(CC(C)C)SC4=NC3=O)c2C)c1
  A: 1 | B: -5% | C: 39 | D: -4%
molecule: CC(C)CC1=NN2C(=N)/C(=C\c3coc4ccccc4c3=O)C(=O)N=C2S1
  A: 69* | B: -9% | C: -19 | D: -20%
molecule: COc1ccc(Cl)c(Cn2cnc3c(cnn3C(C)(C)C)c2=O)c1F
  A: 3 | B: . | C: -11 | D: .

# Compound profiles, as listed above. Order of screens: TRPML1 agonist | miR-21 reporter | TRPML1 inh | uPA generation
# Results for COc1ccc(N=Cc2cc(Cc3ccccc3Cl)cc([N+](=O)[O-])c2O)cc1OC = 1 | -3% | 3 | 5%
# Results for CSC1=NSC2=NC(=O)/C(=C\c3ccc(OC(=O)c4ccco4)cc3)C(=N)N12 = 0 | -22% | -3 | -23%
# Results for C(=N\Nc1nc2ccccc2[nH]1)/c1ccccc1 = -1 | -54% | -8 | -7%

# The results go on.
# Letters: A = TRPML1 agonist; B = miR-21 reporter; C = TRPML1 inh; D = uPA generation
molecule: CC(C)=CCC/C(C)=C/CC/C(C)=C/CCC1(C)CCc2cc(O)ccc2O1 (centres undefined)
  A: 0 | B: . | C: . | D: .
molecule: O=C(c1cnn2c(C(F)F)cc(-c3ccccc3)nc12)N1CCc2ccccc2C1
  A: 58* | B: 7% | C: -3 | D: 0%
molecule: CCCCCc1cc[n+](CC(=O)c2ccccc2)cc1
  A: 0 | B: . | C: . | D: .
molecule: Cc1ccc(NC(=O)c2cnn3c2NC(=C2CC2)C=C3C(F)F)cc1
  A: -1 | B: . | C: . | D: .
molecule: COc1ccc(N/C=C/C(=O)c2ccccc2)cc1
  A: . | B: -19% | C: . | D: 10µM*
molecule: COc1ccc(N/C=C\C(=O)c2ccc3ccccc3c2)cc1
  A: 1 | B: -55% | C: -7 | D: 13%
molecule: CC[N+]1(CC(=O)c2ccc(OC)cc2)CCCCC1
  A: 0 | B: . | C: . | D: .
molecule: Nc1ccc(-c2c3ccc(=O)cc-3oc3cc(O)ccc23)c(C(=O)O)c1
  A: 84* | B: . | C: -2 | D: 6%
molecule: O=c1ccc2[n+]([O-])c3ccc(O)cc3oc-2c1
  A: 1 | B: 13% | C: -3 | D: -11%
molecule: CS(=O)(=O)c1ccccc1NC(=O)COc1ccccc1C(=O)Nc1ccccc1
  A: -1 | B: . | C: . | D: .
molecule: COc1cccc(/C=C/c2cnc3ccccc3n2)c1OC
  A: 0 | B: . | C: . | D: .
molecule: Cc1cc(=O)oc2cc(NC(=O)C(CCCN=C(N)N)NC(=O)OCc3ccccc3)ccc12 (centres undefined)
  A: 0 | B: 2% | C: -52* | D: -4%
molecule: NC(N)=NCCC[C@H](NC(=O)OCc1ccccc1)C(=O)O
  A: 0 | B: -13% | C: -8 | D: 6%
